Data on 29 compounds can be found in patent EP4840861A1, “PREPARATION AND USE OF 7-FLUOROALKYL SUBSTITUTED CAMPTOTHECIN DERIVATIVE” (dated 2026).

The subject of assay [1] is Human esophageal cancer cells OE33. As to the kind of experiment: Inhibitory activity against tumor cell growth (CCK-8, 72 h), OE33. The settings on record: read-out: IC50 (nM) values of compounds for inhibiting tumor cell growth, OE33, 72 h incubation. How it is done:
(§1) Human esophageal cancer cells OE33, human breast cancer cells MDA-MB-231, human gastric cancer cells NCI-N87, human lung cancer cells NCI-H1975, and human breast cancer cells SK-BR-3 were cultured in RPMI1640 (Cellmax) containing 10% fetal bovine serum (Cellmax). Tumor cells in the exponential growth phase were diluted with the medium to 1 × 10^5 cells/mL to afford a cell suspension. The cell suspension was added to a 96-well cell culture plate at 100 µL/well, and cultured in a 37°C and 5% CO2 incubator overnight. On the next day, a test compound was diluted with the medium to concentrations of 10,000 nM, 2,000 nM, 400 nM, 80 nM, 16 nM, 3.2 nM, 0.64 nM, and 0.13 nM. Compound dilutions were added to the 96-well cell culture plate at 2 µL/well, with three replicate wells for each concentration. For negative control and blank control groups without the test compound, a diluent was added at 2 µL/well. After sample addition, the 96-well cell culture plate was placed back into a 37°C and 5% CO2 incubator for further incubation of cells for 72 h. After the incubation was completed, the cell culture plate was taken out, the medium in each well was discarded using a pipette, and then 100 µL of medium containing 10% CCK-8 was added to each well for further incubation of cells at 37°C for 3 h. After the incubation was completed, the culture plate was taken out and placed in a microplate reader while being protected from light. The absorbance was measured with a reference wavelength of 630 nm and a detection wavelength of 450 nm. Based on absorbance values, IC50 values were calculated using four-parameter logistic regression in GraphPad (Table 1). Dxd was used as a positive control drug, with a structural formula [drawing 59]

In assay [2] the test system is human breast cancer cells MDA-MB-231. As to the kind of experiment: Inhibitory activity against tumor cell growth (CCK-8, 72 h), MDA-MB-231. The settings on record: read-out: IC50 (nM) values of compounds for inhibiting tumor cell growth, MDA-MB-231, MDA-MB-231 cells, 72 h incubation. How it is done:
as §1

The subject of assay [3] is human gastric cancer cells NCI-N87. As to the kind of experiment: Inhibitory activity against tumor cell growth (CCK-8, 72 h), NCI-N87. To be noted: read-out: IC50 (nM) values of compounds for inhibiting tumor cell growth, NCI-N87, 72 h incubation. How it is done: as §1
For assay [4], the system named is human lung cancer cells NCI-H1975. Briefly: Inhibitory activity against tumor cell growth (CCK-8, 72 h), NCI-H1975. The settings on record: read-out: IC50 (nM) values of compounds for inhibiting tumor cell growth, NCI-H1975, 72 h incubation. How it is done: as §1
The test system of assay [5] is human breast cancer cells SK-BR-3. Briefly: Inhibitory activity against tumor cell growth (CCK-8, 72 h), SK-BR-3. To be noted: read-out: IC50 (nM) values of compounds for inhibiting tumor cell growth, SK-Br-3, SK-Br-3 cells, 72 h incubation. How it is done:
as §1

As usually defined, the IC50 is the midpoint of a concentration-inhibition curve. Turning to `CC[C@@]1(O)C(=O)OCc2c1cc1n(c2=O)Cc2c-1nc1cc3c(cc1c2CNCC(F)(F)F)OCO3`, the concentration for half-maximal inhibition (IC50) in assay [1] is under 10 nM; in assay [2], 10 to 100 nM; in assay [3], under 10 nM; in assay [4], under 10 nM; in assay [5], under 10 nM.
Take `CC[C@@]1(O)C(=O)OCc2c1cc1n(c2=O)Cc2c-1nc1ccccc1c2CCN[C@@H](C)C(F)(F)F`: the IC50 was under 10 nM in assay [1]; 10 to 100 nM in assay [2]; under 10 nM in assay [3]; 10 to 100 nM in assay [4]; under 10 nM in assay [5].
For the compound `CC[C@@]1(O)C(=O)OCc2c1cc1n(c2=O)Cc2c-1nc1cc(F)c(F)cc1c2CN[C@@H](C)C(F)(F)F`, the IC50 in assay [1] was under 10 nM; in assay [2] it was 10 to 100 nM; in assay [3], under 10 nM; in assay [4] it was under 10 nM; in assay [5] it was under 10 nM.
With `CC[C@@]1(O)C(=O)OCc2c1cc1n(c2=O)Cc2c-1nc1cc(F)c(C)c3c1c2[C@@H](NC(=O)CO)CC3`, the IC50 was under 10 nM in assay [1]; 100 to 500 nM in assay [2]; under 10 nM in assay [3]; 10 to 100 nM in assay [4]; under 10 nM in assay [5].
As for `CC[C@@]1(O)C(=O)OCc2c1cc1n(c2=O)Cc2c-1nc1cc(F)c(C)cc1c2CN[C@@H](C)C(F)(F)F`, the 50% inhibitory concentration (IC50) is under 10 nM in assay [1]; 10 to 100 nM in assay [2]; under 10 nM in assay [3]; under 10 nM in assay [4]; under 10 nM in assay [5].
`CC[C@@]1(O)C(=O)OCc2c1cc1n(c2=O)Cc2c-1nc1ccccc1c2CNCC(F)(F)F`: the half-inhibitory concentration (IC50) in assay [1] is under 10 nM; in assay [2], 100 to 500 nM; in assay [3], under 10 nM; in assay [4] it was 10 to 100 nM.
Consider `CC[C@@]1(O)C(=O)OCc2c1cc1n(c2=O)Cc2c-1nc1ccccc1c2CNC(C)(C)C(F)(F)F`, for which the IC50 in assay [1] is under 10 nM; in assay [2], 100 to 500 nM; in assay [3], under 10 nM; in assay [4] it was 10 to 100 nM; in assay [5], under 10 nM.
As to `CC[C@@]1(O)C(=O)OCc2c1cc1n(c2=O)Cc2c-1nc1ccccc1c2CN[C@@H](C)C(F)(F)F`, the IC50 in assay [1] is under 10 nM; in assay [2] it was 100 to 500 nM; in assay [3], under 10 nM; in assay [4], 10 to 100 nM; in assay [5], under 10 nM.
On to `CC[C@@]1(O)C(=O)OCc2c1cc1n(c2=O)Cc2c-1nc1cc(F)c(C)cc1c2CCNC(C)(C)C(F)(F)F`, for which the half-maximal inhibitory concentration (IC50) in assay [1] was under 10 nM; in assay [2], 100 to 500 nM; in assay [3], under 10 nM; in assay [4], 10 to 100 nM; in assay [5], under 10 nM.
In the case of `CC[C@@]1(O)C(=O)OCc2c1cc1n(c2=O)Cc2c-1nc1ccccc1c2CCNC(C)(C)C(F)(F)F`, the IC50 in assay [1] was under 10 nM; in assay [2] it was 100 to 500 nM; in assay [3], under 10 nM; in assay [4], 10 to 100 nM; in assay [5] it was under 10 nM.
On to `CC[C@@]1(O)C(=O)OCc2c1cc1n(c2=O)Cc2c-1nc1cc(F)c(C)cc1c2CNCC(F)(F)F`, for which the IC50 was under 10 nM in assay [1]; 100 to 500 nM in assay [2]; under 10 nM in assay [3]; under 10 nM in assay [4]; under 10 nM in assay [5].
Regarding `CC[C@@]1(O)C(=O)OCc2c1cc1n(c2=O)Cc2c-1nc1cc3c(cc1c2CN[C@H](C)C(F)(F)F)OCO3`, the IC50 in assay [1] was under 10 nM; in assay [2] it was 10 to 100 nM; in assay [3] it was under 10 nM; in assay [4], 10 to 100 nM; in assay [5] it was under 10 nM.
As to `CC[C@@]1(O)C(=O)OCc2c1cc1n(c2=O)Cc2c-1nc1cc(F)c(F)cc1c2CN[C@H](C)C(F)(F)F`, the 50% inhibitory concentration (IC50) is under 10 nM in assay [1]; 10 to 100 nM in assay [2]; under 10 nM in assay [3]; under 10 nM in assay [4]; under 10 nM in assay [5].
As to `CC[C@@]1(O)C(=O)OCc2c1cc1n(c2=O)Cc2c-1nc1cc(F)c(F)cc1c2CNCC(F)(F)F`, the concentration for half-maximal inhibition (IC50) in assay [1] was under 10 nM; in assay [2], 10 to 100 nM; in assay [3], under 10 nM; in assay [4] it was under 10 nM; in assay [5], under 10 nM.
Regarding `CC[C@@]1(O)C(=O)OCc2c1cc1n(c2=O)Cc2c-1nc1cc3c(cc1c2CNC(C)(C)C(F)(F)F)OCO3`, the IC50 in assay [1] is under 10 nM; in assay [2], 10 to 100 nM; in assay [3], under 10 nM; in assay [4], under 10 nM; in assay [5] it was under 10 nM.
Take `CC[C@@]1(O)C(=O)OCc2c1cc1n(c2=O)Cc2c-1nc1cc(F)c(F)cc1c2CCN[C@H](C)C(F)(F)F`: the IC50 was under 10 nM in assay [1]; 10 to 100 nM in assay [2]; under 10 nM in assay [3]; under 10 nM in assay [4]; under 10 nM in assay [5].
On to `CC[C@@]1(O)C(=O)OCc2c1cc1n(c2=O)Cc2c-1nc1cc(F)c(C)cc1c2CNC(C)(C)C(F)(F)F`, for which the concentration for half-maximal inhibition (IC50) in assay [1] is under 10 nM; in assay [2], 10 to 100 nM; in assay [3] it was under 10 nM; in assay [4], under 10 nM; in assay [5], under 10 nM.
As for `CC[C@@]1(O)C(=O)OCc2c1cc1n(c2=O)Cc2c-1nc1cc3c(cc1c2CCN[C@@H](C)C(F)(F)F)OCO3`, the IC50 in assay [1] is under 10 nM; in assay [2] it was 100 to 500 nM; in assay [3], under 10 nM; in assay [4], under 10 nM; in assay [5], under 10 nM.
Turning to `CC[C@@]1(O)C(=O)OCc2c1cc1n(c2=O)Cc2c-1nc1cc3c(cc1c2CCN[C@H](C)C(F)(F)F)OCO3`, the IC50 in assay [1], in assay [2], in assay [3], in assay [4] and in assay [5] was under 10 nM in each case.
In the case of `CC[C@@]1(O)C(=O)OCc2c1cc1n(c2=O)Cc2c-1nc1cc(F)c(C)cc1c2CCNCC(F)(F)F`, the IC50 in assay [1] was under 10 nM; in assay [2], 100 to 500 nM; in assay [3], under 10 nM; in assay [4], under 10 nM; in assay [5] it was under 10 nM.
`CC[C@@]1(O)C(=O)OCc2c1cc1n(c2=O)Cc2c-1nc1cc(F)c(C)cc1c2CCN[C@H](C)C(F)(F)F`: the IC50 in assay [1] is under 10 nM; in assay [2], 10 to 100 nM; in assay [3], 10 to 100 nM; in assay [4], 10 to 100 nM; in assay [5] it was under 10 nM.
Regarding `CC[C@@]1(O)C(=O)OCc2c1cc1n(c2=O)Cc2c-1nc1ccccc1c2CN[C@H](C)C(F)(F)F`, the IC50 was under 10 nM in assay [1]; 100 to 500 nM in assay [2]; under 10 nM in assay [3]; 10 to 100 nM in assay [4]; under 10 nM in assay [5].
For `CC[C@@]1(O)C(=O)OCc2c1cc1n(c2=O)Cc2c-1nc1cc3c(cc1c2CN[C@@H](C)C(F)(F)F)OCO3`, the IC50 in assay [1] is under 10 nM; in assay [2], 10 to 100 nM; in assay [3], under 10 nM; in assay [4] it was under 10 nM; in assay [5], under 10 nM.
As to `CC[C@@]1(O)C(=O)OCc2c1cc1n(c2=O)Cc2c-1nc1cc(F)c(F)cc1c2CNC(C)(C)C(F)(F)F`, the half-maximal inhibitory concentration (IC50) in assay [1] is under 10 nM; in assay [2], 10 to 100 nM; in assay [3], under 10 nM; in assay [4], under 10 nM; in assay [5], under 10 nM.
As to `CC[C@@]1(O)C(=O)OCc2c1cc1n(c2=O)Cc2c-1nc1cc(F)c(C)cc1c2CN[C@H](C)C(F)(F)F`, the IC50 in assay [1] was under 10 nM; in assay [2] it was 10 to 100 nM; in assay [3], under 10 nM; in assay [4], under 10 nM; in assay [5], under 10 nM.
Turning to `CC[C@@]1(O)C(=O)OCc2c1cc1n(c2=O)Cc2c-1nc1ccccc1c2CCNCC(F)(F)F`, the IC50 is under 10 nM in assay [1]; 100 to 500 nM in assay [2]; under 10 nM in assay [3]; 10 to 100 nM in assay [4]; under 10 nM in assay [5].
Take `CC[C@@]1(O)C(=O)OCc2c1cc1n(c2=O)Cc2c-1nc1cc(F)c(F)cc1c2CCN[C@@H](C)C(F)(F)F`: the concentration for half-maximal inhibition (IC50) in assay [1] was under 10 nM; in assay [2] it was 10 to 100 nM; in assay [3], under 10 nM; in assay [4], 10 to 100 nM; in assay [5], under 10 nM.
For the compound `CC[C@@]1(O)C(=O)OCc2c1cc1n(c2=O)Cc2c-1nc1cc(F)c(F)cc1c2CCNCC(F)(F)F`, the IC50 was under 10 nM in assay [1]; 10 to 100 nM in assay [2]; under 10 nM in assay [3]; 10 to 100 nM in assay [4]; under 10 nM in assay [5].
For `CC[C@@]1(O)C(=O)OCc2c1cc1n(c2=O)Cc2c-1nc1cc(F)c(C)cc1c2CCN[C@@H](C)C(F)(F)F`, the IC50 in assay [1] was under 10 nM; in assay [2], 10 to 100 nM; in assay [3], under 10 nM; in assay [4] it was under 10 nM; in assay [5] it was under 10 nM.
